# Literature values in patent publication US12076313B2 (CELISTA PHARMACEUTICALS LLC, priority 2020, dated 2024).
# Test system: interferons (IFNs)
# Settings: treated mice; cited from earlier work
compound,measurement,value
"CC(C)Cn1cnc2c(N)nc3ccccc3c21 [Imiquimod, 1-(2-methylpropyl)-1H-imidazo[4,5-c]quinolin-4-amine]",levels of circulating IFN activity,"≤ 2,000 U/ml"
